Among the data in ChEMBL document CHEMBL2057130, “Bruton's tyrosine kinase inhibitors: approaches to potent and selective inhibition, preclinical and clinical evaluation for inflammatory diseases and B cell malignancies” (J Med Chem, 2012) are inhibition values, retold here.

The assay relates to Macrophage. The assay can be described thus: Inhibition of immobilized immune complex-stimulated TNFalpha production in macrophages. Type of assay: functional, cell-based.

Take `Cc1c(NC(=O)c2ccc(C(C)(C)C)cc2)cccc1-c1cn(C)c(=O)c(Nc2ccc(C(=O)N3CCOCC3)cc2)n1`: the inhibition result was “Dose-dependent effect”.
